Experimental findings from US20260132128A1, “COMPOUND FOR RECOVERING P53 MUTATION FUNCTION AND USE THEREOF” (SHENZHEN ZHONGGE BIOLOGICAL TECHNOLOGY CO., LTD., priority 2022, published 2026) are described below.

Chains of the proteins cited; added tags and fusions are not shown.
UniProt P08684, whole entry: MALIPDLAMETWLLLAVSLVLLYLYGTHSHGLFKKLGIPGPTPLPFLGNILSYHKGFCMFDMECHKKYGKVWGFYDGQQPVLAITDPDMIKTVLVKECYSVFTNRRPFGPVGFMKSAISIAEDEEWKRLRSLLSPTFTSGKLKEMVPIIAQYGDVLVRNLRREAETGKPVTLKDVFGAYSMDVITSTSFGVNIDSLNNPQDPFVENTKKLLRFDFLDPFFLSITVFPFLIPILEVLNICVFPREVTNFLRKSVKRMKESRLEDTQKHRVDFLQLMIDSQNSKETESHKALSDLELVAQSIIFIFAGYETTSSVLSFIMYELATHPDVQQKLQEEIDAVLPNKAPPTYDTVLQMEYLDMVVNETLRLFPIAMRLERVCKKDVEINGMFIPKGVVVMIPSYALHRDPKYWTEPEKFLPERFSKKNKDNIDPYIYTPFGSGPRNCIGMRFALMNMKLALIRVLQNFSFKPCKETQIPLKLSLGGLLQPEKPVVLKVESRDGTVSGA

SMILES strings stand for the structures. Read-outs that look alike come from different tables or passages of the source.

Data set [1] in a line: Pharmacokinetic test in mice. Conditions: mouse. How it is done: ICR male mice (15 to 35 g, 5 to 10 weeks old, Shanghai Xipuer-Bikai Experimental Animal Co., Ltd.) were selected as test animals in this study. The LC-MS/MS method was used to quantitatively determine drug concentrations in the plasma of mice at different time points after intravenous injection or oral gavage administration of the test compound to evaluate the pharmacokinetic characteristics of the compound in mice. The clear solution of the test compound was injected into ICR mice via the tail vein (without fasting, solvent: 40% hydroxypropyl-β-cyclodextrin) and administered to ICR mice by oral gavage (fasting for 10 to 14 hours, free drinking water, solvent: 0.2% hydroxypropyl cellulose, 0.5% Tween 80). For intravenous administration, blood was collected from the submandibular venous plexus at 0.033, 0.083, 0.25, 0.5, 1, 2, 4, 8, and 24 hours after administration, placed in an anticoagulant tube with EDTA-K2 (Jiangsu Kangjian Medical Supplies Co., Ltd.), mixed, and centrifuged at 2-8° C., 6800 g for 6 minutes to obtain plasma; for oral gavage administration, blood was collected from the submandibular venous plexus at 0.083, 0.25, 0.5, 1, 2, 4, 6, 8, and 24 hours after administration, placed in an anticoagulant tube with EDTA-K2 (Jiangsu Kangjian Medical Supplies Co., Ltd.), mixed, and centrifuged at 2-8° C., 6800 g for 6 minutes to obtain plasma. The blood drug concentration was determined by LC-MS/MS, and the relevant pharmacokinetic parameters were calculated by the non-compartmental linear logarithmic trapezoidal method using Phoenix WinNonlin™ Version 7.0 (Pharsight, USA) pharmacokinetic software.

The next data set concerns BxPC-3 cells. The data set can be described thus: BxPC-3 cell proliferation test (CTG). Conditions: 6 days. How it is done:
To detect the inhibitory effects of the aforementioned compounds on the proliferation ability of BxPC-3 cells, 125 BxPC-3 cells (ATCC®CRL-1687) were seeded into a 384-well plate (Corning 3765), 35 μL per well, and placed in a constant temperature incubator at 37° C. and 5% CO2 overnight. Then, 40 nL of the compound was added to the 384-well plate using an Echo 655 Liquid Handler, with a maximum final concentration of 10 μM, 1:3 serial dilution, and in a total of 10 doses. Incubation was performed at 37° C., 5% CO2 for 6 days. The plate was taken out from the incubator and equilibrated at room temperature for 10 minutes. 20 μL of CTG (Promage G7572) was added to each well of the plate according to the platemap. The plate was centrifuged at 1000 rpm for 1 minute. The lysis of cells was induced by mixing on a shaker for 2 minutes. The plate was centrifuged at 1000 rpm for 1 minute. Incubation was performed at room temperature for 10 minutes to stabilize luminescence signals. Luminescence values were recorded by Envision (PerkinElmer 2105-0020). GraphPad 9.0 was used to fit the inhibition rate and compound concentration into a nonlinear regression curve (dose response-variable slope) to calculate GI50, inhibition rate={1−(A−B)/(C−B)}*100%, A=signal value of compound; B=average signal of blank control; C=average signal of negative control (wherein the negative control was 0.1% DMSO).

Another data set concerns the target CYP 3A4 (Homo sapiens, UniProt P08684). Briefly: CYP 3A4 time-dependent inhibition test. To be noted: midazolam substrate.
The nature of data set [2]: Liver microsome stability test, human (HLM). To be noted: human liver microsomes, NADPH. On the procedure: (§1) The 10 mM test compound/ketanserin (Energy Chemical, Cat. No. E020711) stock solution was diluted with acetonitrile to 0.5 mM compound/reference compound. The frozen 100 mM NADPH (MCE, Cat. No. HYF003/CS-4998) was diluted with phosphate buffer solution to a concentration of 6 mM; 20 mg/mL HLM (BioIVT, Cat. No. X008067) or MLM (BioIVT, Cat. No. M00501) was diluted with phosphate buffer solution to a concentration of 0.75 mg/ml, and added to a 96-round well plate, respectively, and shaken evenly on an oscillator at 600 rpm. The above oscillated samples were pipetted 3 times with an electric pipettor and dispensed into a new 96-well plate (containing NADPH group (n=2), NADPH-free group was added at 0 and 45 min (n=1)), and there were a total of 5 groups of 0, 5, 15, 30 and 45 min, respectively. […] The reaction was terminated by quickly adding glacial acetonitrile internal standard using an electric pipettor; after vortexing at 900 rpm for 10 seconds, heat sealing was performed, oscillation was performed on an oscillator for 10 minutes, centrifugation was performed at 4000 rpm for 50 minutes, the supernatant was collected and diluted with pure water, and the test compound and the reference compound were quantified by LC-MS/MS analysis.
In general terms: Liver microsomes are a subcellular fraction often used to study metabolism.

The nature of data set [3]: Liver microsome stability test, mouse (MLM). To be noted: mouse liver microsomes, NADPH. How it is done:
as §1

One may read the AUC as concentration integrated over time. A higher AUC goes with high exposure. What is called Cmax is the highest concentration seen after dosing. The term GI50 denotes the concentration at which growth is held to half of that of the control. Low readings indicate more potent growth inhibition, high ones less potent growth inhibition. Broadly, the IC50 is the point on the concentration scale where inhibition reaches its midpoint. For `CNC(=O)c1ccc(NCC#Cc2cc3c(NC4CC[C@@H](N5CC6(COC6)C5)C[C@@H]4F)cccn3c2CC(F)(F)F)c(OC)c1` (single isomer, unassigned), the “CL” value in data set [1] (iv 2.5 mpk) amounted to 22 mL/min/kg. The “AUC” value in data set [1] (po 25 mpk, plasma) was found to be 17194 ng·h/mL. Moreover, the “Cmax” value in data set [1] (po 25 mpk, plasma) turned out to be 3638 ng/mL. Moreover, the GI50 with BxPC-3 cells is under 1 µM. Further, the IC50 turned out to be 4 µM at CYP 3A4 (read-out: IC50 (μM) 0 min, 0 min pre-incubation); 1.69 µM on CYP 3A4 (read-out: IC50 (μM) 30 min, with NADPH, 30 min pre-incubation with NADPH); 4.77 µM on CYP 3A4 (read-out: IC50 (μM) 30 min, without NADPH, 30 min pre-incubation without NADPH). Further, in data set [2], the “T1/2 (min) Human” value is on record as 65.3 min. The “T1/2 (min) Mouse” value in data set [3] was 11.2 min.
